{
  "sequences": {"note": "Protein sequences, listed by entry. Tags and fused reporters are not part of them.", "UniProt P23977, whole entry": "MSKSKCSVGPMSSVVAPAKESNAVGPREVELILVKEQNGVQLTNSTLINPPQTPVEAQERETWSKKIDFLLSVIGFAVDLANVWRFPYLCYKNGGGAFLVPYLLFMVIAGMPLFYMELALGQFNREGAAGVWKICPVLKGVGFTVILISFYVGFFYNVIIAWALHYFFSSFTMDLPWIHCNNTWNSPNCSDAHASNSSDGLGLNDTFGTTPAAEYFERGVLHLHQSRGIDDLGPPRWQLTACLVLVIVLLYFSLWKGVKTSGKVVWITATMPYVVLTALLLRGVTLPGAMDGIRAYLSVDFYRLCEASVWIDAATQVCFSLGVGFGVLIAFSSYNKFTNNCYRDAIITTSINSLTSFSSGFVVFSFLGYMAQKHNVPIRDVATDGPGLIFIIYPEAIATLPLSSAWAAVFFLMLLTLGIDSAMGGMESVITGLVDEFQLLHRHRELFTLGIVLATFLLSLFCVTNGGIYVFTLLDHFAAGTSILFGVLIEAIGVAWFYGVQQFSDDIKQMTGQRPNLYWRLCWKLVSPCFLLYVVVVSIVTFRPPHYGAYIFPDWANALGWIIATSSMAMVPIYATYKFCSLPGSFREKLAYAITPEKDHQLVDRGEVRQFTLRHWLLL"},
  "source": "patent US6395748B2",
  "about": "“Tropane-derivatives, their preparation and use” (NeuroSearch A/S, priority 1996, dated 2002)",
  "key": {"dopamine transporter [1]": {"target": "T1, dopamine transporter (Rattus norvegicus, UniProt P23977)", "T1 construct": "Corpi striati from male Wistar rats (150-200 g) are homogenized; from tissue; host or cells: rat striatal synaptosomes (P2 pellet)", "test": "In vitro inhibition of 3H-WIN 35428 binding"}, "dopamine transporter [2]": {"target": "T1, dopamine transporter", "test": "In vitro inhibition of 3H-dopamine (3H-DA) uptake in striatal synaptosomes", "assay_type": "biochemical", "procedure": "Monoamine oxidase activity will be inhibited in the presence of pargyline. The homogenate is centrifuged at 1000×g for 10 min. The resulting supernatant is then centrifuged at 27,000×g for 50 min and the supernatant is discarded.\nAfter incubation the samples are poured directly onto Whatman GF/C glass fibre filters under suction. The filters are then washed three times with 5 ml of ice-cold 0.9% (w/v) NaCl solution. The amount of radioactivity on the filters is determined by conventional liquid scintillation counting. Specific uptake is calculated as the difference between total uptake and non-specific uptake."}},
  "data": [
    {"compound": "CCOC[C@@H]1[C@@H](c2ccc(Cl)c(Cl)c2)C[C@@H]2CC[C@H]1N2C", "note": "[(1R, 2R, 3S)-2-ethoxymethyl-3-(3,4-dichlorophenyl)tropane]", "values": [
      {"measurement": "IC50", "setting": "dopamine transporter [1]", "value": 0.035, "unit": "µM"},
      {"measurement": "IC50", "setting": "dopamine transporter [2]", "value": 0.008, "unit": "µM"}
    ]}
  ]
}
